According to the CheMixHub viscosity set:
± gives the uncertainty stated by the source.

How the values were obtained:
[1] = xn = mol fraction of the nth substance listed

CCC[N+](CCC)(CCC)CCC.[OH-] + O
viscosity [mPa·s], [1], 101 kPa
Conditions	x1 = 0.00227	x1 = 0.00464	x1 = 0.009747	x1 = 0.01539	x1 = 0.02167	x1 = 0.02868	x1 = 0.03658
298.15 K	1.023 ± 0.018	1.211 ± 0.022	1.399 ± 0.026	1.901 ± 0.035	2.402 ± 0.046	3.469 ± 0.067	4.537 ± 0.09
303.15 K	0.9005 ± 0.016	1.062 ± 0.019	1.224 ± 0.022	1.634 ± 0.03	2.043 ± 0.039	2.825 ± 0.055	3.607 ± 0.072
313.15 K	0.7316 ± 0.013	0.8475 ± 0.015	0.9633 ± 0.017	1.246 ± 0.023	1.529 ± 0.029	2.062 ± 0.04	2.594 ± 0.051
323.15 K	0.6056 ± 0.011	0.6935 ± 0.012	0.7819 ± 0.014	0.9849 ± 0.018	1.189 ± 0.023	1.545 ± 0.03	1.9 ± 0.038

CCC[N+](CCC)(CCC)CCC.[Br-] + OCC(O)CO
[1], 101 kPa
Conditions	viscosity [mPa·s]
294 K, x1 = 0.33	86.1 ± 26
294.4 K, x1 = 0.25	55.5 ± 17
296.8 K, x1 = 0.2	40.8 ± 12
303.6 K, x1 = 0.25	41.2 ± 12
303.8 K, x1 = 0.33	58.8 ± 18
313.7 K, x1 = 0.33	35.5 ± 11

CCC[N+](CCC)(CCC)CCC.[OH-] + CC(=O)N(C)C
viscosity [mPa·s], [1], 101 kPa
Conditions	298.15 K	303.15 K	308.15 K	313.15 K
x1 = 0.0153	1.15	1.07	0.98	0.92
x1 = 0.0476	1.58	1.47	1.36	1.26
x1 = 0.0826	2.02	1.9	1.73	1.6
x1 = 0.1205	2.43	2.29	2.12	1.95
x1 = 0.1617	2.85	2.68	2.52	2.33
x1 = 0.1837	3.06	2.89	2.71	2.52
x1 = 0.2308	3.45	3.27	3.09	2.87
x1 = 0.3104	3.99	3.82	3.62	3.39
x1 = 0.403	4.46	4.28	4.09	3.87
x1 = 0.5122	4.84	4.68	4.48	4.24
x1 = 0.6429	5.15	4.99	4.81	4.58
x1 = 0.7453	5.35	5.2	5.03	4.79
x1 = 0.863	5.66	5.52	5.37	5.15

CCC[N+](CCC)(CCC)CCC.[Br-] + OCCOCCOCCO
[1], 101 kPa
Conditions	viscosity [mPa·s]
296.2 K, x1 = 0.2	80.6 ± 24
303.4 K, x1 = 0.2	61.7 ± 18
303.6 K, x1 = 0.25	74.3 ± 22
304 K, x1 = 0.29	78.3 ± 24
313.3 K, x1 = 0.25	46.9 ± 14
313.9 K, x1 = 0.29	49.1 ± 15
314.1 K, x1 = 0.2	37.7 ± 11

CCC[N+](CCC)(CCC)CCC.[OH-]
viscosity [mPa·s]
Conditions	298.15 K	303.15 K	308.15 K	313.15 K
100 kPa	6.1 ± 0.13	6.01 ± 0.13	5.88 ± 0.12	5.66 ± 0.12
101 kPa	6.1	6.01	5.88	5.66

CCC[N+](CCC)(CCC)CCC.[OH-] + CS(C)=O
viscosity [mPa·s], [1], 100 kPa
Conditions	298.15 K	303.15 K	308.15 K	313.15 K
x1 = 0.0197	2.25 ± 0.05	2.07 ± 0.05	1.93 ± 0.04	1.84 ± 0.04
x1 = 0.0509	2.61 ± 0.06	2.45 ± 0.05	2.34 ± 0.05	2.25 ± 0.05
x1 = 0.0807	2.94 ± 0.06	2.78 ± 0.06	2.72 ± 0.06	2.64 ± 0.06
x1 = 0.1151	3.27 ± 0.07	3.12 ± 0.07	3.1 ± 0.07	3.03 ± 0.07
x1 = 0.1466	3.58 ± 0.08	3.43 ± 0.07	3.44 ± 0.07	3.38 ± 0.07
x1 = 0.1786	3.88 ± 0.08	3.74 ± 0.08	3.76 ± 0.08	3.74 ± 0.08
x1 = 0.2648	4.58 ± 0.1	4.45 ± 0.09	4.52 ± 0.1	4.5 ± 0.1
x1 = 0.3564	5.18 ± 0.11	5.1 ± 0.11	5.14 ± 0.11	5.15 ± 0.11
x1 = 0.4034	5.45 ± 0.11	5.36 ± 0.11	5.41 ± 0.11	5.41 ± 0.11
x1 = 0.4872	5.84 ± 0.12	5.76 ± 0.12	5.79 ± 0.12	5.77 ± 0.12
x1 = 0.5638	6.11 ± 0.13	6.02 ± 0.13	6.05 ± 0.13	6.02 ± 0.13
x1 = 0.6341	6.27 ± 0.13	6.2 ± 0.13	6.2 ± 0.13	6.16 ± 0.13
x1 = 0.6779	6.34 ± 0.13	6.27 ± 0.13	6.25 ± 0.13	6.2 ± 0.13
x1 = 0.7332	6.37 ± 0.13	6.34 ± 0.13	6.29 ± 0.13	6.21 ± 0.13
x1 = 0.7945	6.38 ± 0.13	6.34 ± 0.13	6.27 ± 0.13	6.19 ± 0.13
x1 = 0.8432	6.36 ± 0.13	6.28 ± 0.13	6.22 ± 0.13	6.13 ± 0.13
x1 = 0.8902	6.32 ± 0.13	6.24 ± 0.13	6.14 ± 0.13	6.04 ± 0.13
x1 = 0.9672	6.17 ± 0.13	6.1 ± 0.13	5.99 ± 0.13	5.81 ± 0.12

CCC[N+](CCC)(CCC)CCC.[Br-] + OCCO
[1], 101 kPa
Conditions	viscosity [mPa·s]
294 K, x1 = 0.17	978 ± 300
294.8 K, x1 = 0.2	882.9 ± 270
302.8 K, x1 = 0.17	524.4 ± 160
303.4 K, x1 = 0.2	561 ± 170
304 K, x1 = 0.25	685.4 ± 210
